Like-named read-outs stand apart in the source and are kept apart here.
System: human platelets
Experiment: Inhibition of platelet aggregation in vitro
Type: cell-based
Procedure: Platelet rich plasma (PRP) is prepared by centrifugation of citrated blood at 200 g for 20 minutes. […] Collagen (1.0 μg/mL) is used as platelet activator in PRP. The inhibitory activity of the compounds is tested by addition of drug to PRP 10 or 30 min before addition of the stimulus.
The antiaggregatory activity of the compounds of the invention is evaluated as % inhibition of platelet aggregation compared to control samples.

IC50 (read-out: Platelet Aggregation IC50 (collagen 95%) 10 min): 59 µM
IC50 (read-out: Platelet Aggregation IC50 (collagen 95%) 30 min): 21 µM
Structure (SMILES): CC(=O)Oc1ccccc1C(=O)O [Aspirin]

Reference: patent US20100210694A1, “NEW NO-DONOR ASPIRIN DERIVATIVES” (NICOX S.A., priority 2007, published 2010)
